Test results published in patent publication US20240082398A1, “METHODS OF PREPARING AND EXPANDING TYPE I INNATE LYMPHOID CELLS AND THERAPEUTIC USES THEREOF” (City of Hope, priority 2021, published 2024).

What was measured:
[1] = tested on: LSCs isolated from spleen of Mll^PTD/WT: Flt3^ITD/ITD mice with AML; test: In vitro kinase inhibitor experiments (LSC pretreatment, then ILC1 co-culture); type: cell-based, mouse; details: for number of LSCs in the presence of inhibitor: co-culture with WT ILC1s, vs corresponding control; for Lin^−Sca-1^−c-Kit^− cell population: inhibitor combined with ILC1s vs ILC1s alone
[2] = tested on: LSCs from Mll^PTD/WT: Flt3^ITD/ITD mice with AML; test: LSC differentiation into terminal myeloid blasts (Mac-1^+, Gr-1^+, Wright-Giemsa); type: cell-based, mouse; details: vs LSCs alone / untreated; co-culture 1-4 days; IFN-γ 0.1, 1, 10 ng/ml

Molecule	number of LSCs in the presence of inhibitor [1]	Lin^−Sca-1^−c-Kit^− cell population [1]	LSC differentiation into terminal myeloid blasts (cells expressing Mac-1 and Gr-1) [2]
Cc1cc(Nc2nc(N[C@@H](C)c3ncc(F)cn3)ncc2Cl)n[nH]1 [AZD1480]	decreased	no significant alteration	–
CC[C@@](C)(Nc1ccnc(-c2c[nH]c3ncccc23)n1)C(=O)NCC(F)(F)F [VX-509, decernotinib]	decreased	no significant alteration	–
recombinant murine IFN-γ: animal-free recombinant murine IFN-γ cytokine	–	–	suppressed the differentiation of LSCs into cells expressing Mac-1 and Gr-1
